Assay results as given in article PMC7046807, “Key Components of the Complement Lectin Pathway Are Not Only Required for the Development of Inflammatory Arthritis but Also Regulate the Transcription of Factor D” (Frontiers in Immunology, 2020).

Chains of the proteins cited; added tags and fusions are not shown. Residues count along the entry.
UniProt O00206, 24-631, chain 1 of 2: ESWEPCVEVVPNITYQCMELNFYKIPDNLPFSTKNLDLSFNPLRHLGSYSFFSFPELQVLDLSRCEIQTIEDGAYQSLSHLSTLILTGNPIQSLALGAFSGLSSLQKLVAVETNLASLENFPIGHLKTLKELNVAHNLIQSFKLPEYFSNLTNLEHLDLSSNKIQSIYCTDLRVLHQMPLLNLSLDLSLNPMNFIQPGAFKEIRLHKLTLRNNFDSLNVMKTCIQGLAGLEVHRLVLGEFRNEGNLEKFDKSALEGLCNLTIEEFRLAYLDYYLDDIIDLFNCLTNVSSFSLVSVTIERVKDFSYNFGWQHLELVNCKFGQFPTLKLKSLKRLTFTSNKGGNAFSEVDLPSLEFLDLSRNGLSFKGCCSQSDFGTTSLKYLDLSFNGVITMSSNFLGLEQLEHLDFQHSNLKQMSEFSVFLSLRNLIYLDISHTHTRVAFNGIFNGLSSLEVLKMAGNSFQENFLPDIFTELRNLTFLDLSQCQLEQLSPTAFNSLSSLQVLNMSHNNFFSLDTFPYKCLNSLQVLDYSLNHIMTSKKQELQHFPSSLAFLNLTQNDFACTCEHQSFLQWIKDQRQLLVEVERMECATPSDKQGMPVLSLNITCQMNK
Recombinant Human TLR4 (R&D Systems), UniProt Q9Y6Y9, 19-160, chain 2 of 2: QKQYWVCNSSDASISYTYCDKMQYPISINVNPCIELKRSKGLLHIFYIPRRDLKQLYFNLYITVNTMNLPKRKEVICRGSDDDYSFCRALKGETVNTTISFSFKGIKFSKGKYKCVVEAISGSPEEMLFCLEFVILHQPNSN

Molecular target: T1, Recombinant Human TLR4 (R&D Systems) (human, UniProt O00206, in part; Q9Y6Y9, fluorescently labeled with RED-tris-NTA 2nd Generation dye (NanoTemper Monolith His-Tag Labeling Kit))
T1 construct: Toll-like receptor 4, human, recombinant, from R&D Systems; MD2 (MD-2, lymphocyte antigen 96), human; the methods name TLR4 alone, so it is not certain that this chain was present; no catalogue number is printed; also called Toll-like receptor 4; rTLR4/MD2; source: bought: R&D Systems
Experiment: MST; TLR4 labelled with RED-tris-NTA 2nd Generation (His-tag labelling kit) and kept at 5 nM; MBL titrated from 20.8 uM to 635 pM; 20 mM Tris-HCl pH 7.5, 150 mM NaCl, 5 mM CaCl2, 1 mM BME; standard capillaries, Monolith NT.115 pico, 20% LED power, high MST power; Kd model, in duplicate
Details: both partners purified

Kd: 907 ± 263 nM
B1: recombinant human MBL (mannan-binding lectin), clinical grade (natural protein, UniProt P11226 21-248, looked up)
chain: ETVTCEDAQKTCPAVIACSSPGINGFPGKDGRDGTKGEKGEPGQGLRGLQGPPGKLGPPGNPGPSGSPGPKGQKGDPGKSPDGDSSLAASERKALQTEMARIKKWLTFSLGKQVGNKFFLTNGEIMTFEKVKALCVKFQASVATPRNAAENGAIQNLIKEEAFLGITDEKTEGQFVDLTGNRLTYTNWNEGEPNNAGSDEDCVLLLKNGQWNDVPCSTSHLAVCEFPI
notes: also called rMBL; human rMBL; source: recombinant, clinical grade
